## Measured affinities in a library of Ab-14 light chain variants

Target peptide (SARS-CoV-2 spike, HR2 region): PDVDLGDISGINAS

Parent: Ab-14, a human scFv built as VH, the linker GGGGSGGGGSGGGGS, VL. Only the CDRs of the light chain vary.
VH: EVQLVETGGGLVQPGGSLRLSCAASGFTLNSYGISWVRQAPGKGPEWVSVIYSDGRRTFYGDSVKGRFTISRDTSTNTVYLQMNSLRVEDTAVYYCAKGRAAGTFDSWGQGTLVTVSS
VL: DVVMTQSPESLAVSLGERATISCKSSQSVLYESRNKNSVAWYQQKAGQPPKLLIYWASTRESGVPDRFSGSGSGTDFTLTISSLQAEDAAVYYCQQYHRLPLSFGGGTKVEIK

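The starting antibody came from a phage panning campaign against this peptide. Library AAYL50 holds single substitutions and randomly drawn double and triple substitutions in the CDRs. In AlphaSeq, yeast of one mating type display the scFv and yeast of the other type display the target. The frequency of each diploid, read from paired DNA barcodes, reflects how well the two displayed proteins bind. Scores were corrected for input abundance and mapped to Kd with protein pairs of known affinity run in the same pool. The assay was run in three technical replicates.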

Each variant is given by its three light chain CDRs, as the data file delimits them; those of the parent are KSSQSVLYESRNKNSVA, WASTRES, QQYHRLPLS.
Numbers give log10(Kd / nM), so 0 is 1 nM and 3 is 1 µM. Smaller is tighter.
The mean shown is taken over the replicates in which the pair was detected.
An entry "not detected" has no value in the source: the pair was not observed among the diploids in any replicate. This suggests poor binding but is not conclusive.
Background: pairings of library AAYL50 with three empty control strains gave a value in 18% of cases (median 4.19, 5th percentile 2.99). Values in that range, when seen in few replicates, are hard to tell from nonspecific mating. Also given: how often the same scFv was detected with the empty control strains.
Parent in this assay: reference entry 0.65, copy in this library 1.68.

| CDR-L1 | CDR-L2 | CDR-L3 | log10 Kd (nM), mean | seen in | control signals |
|---|---|---|---|---|---|
| GSSQSVLYEWRNKNSVA | WASTRES | QQYHRLTLS | 4.09 | 2/3 | 1/9 |
| KGSQSVLYEYRNKNSNA | WASTRES | QQYHRLPLS | not detected | 0/3 | 0/9 |
| KSSQSVLYEVRLKNSVA | WASTRES | QNYHRLPLS | 5.78 | 1/3 | 4/9 |
| KQSQSVLYESRNKNSVA | WLSTRTS | QQYHRLPLS | 3.84 | 3/3 | 2/9 |
| KSSQSVLYFWRNKNSVA | WASTRES | QAYHRLPLS | 2.63 | 2/3 | 0/9 |
| KSSRSVLYEIRNKNSYA | WASTRES | QQYHRLPLS | 3.75 | 1/3 | 2/9 |
| KSSQSVLYEIRNKNSVA | WASTREQ | QQYHRLPLS | 1.97 | 3/3 | 2/9 |
| KSSQSALYESRNKNSVA | PASTRES | QQYHRLPDS | not detected | 0/3 | 0/9 |
| KSSQSVLRESRNKNSVA | WASMRGS | QQYHRLPLS | 3.60 | 1/3 | 2/9 |
| KSSQSVLYESRNKNAEA | PASTRES | QQYHRLPLS | 5.77 | 1/3 | 2/9 |
| KSSQSVLYESRNFNSCA | WASTRES | QQYHRLGLS | not detected | 0/3 | 1/9 |
| GCSQSVLYESRNKNSVA | WASGRES | QQYHRLPLS | 1.87 | 3/3 | 0/9 |
| NSSQSVTYESSNKNSVA | WASTRES | QQYHRLPLS | 0.38 | 3/3 | 0/9 |
| KSSQSVLCKSRNKNSVA | WASTRHS | QQYHRLPLS | 3.37 | 3/3 | 4/9 |
| KASQSVLYESRDKNSVA | WASTRES | QQYHRLILS | 0.92 | 3/3 | 3/9 |
| KSLQSVLYESRNKNSVA | WASTRES | QYYHREPLS | 6.60 | 1/3 | 3/9 |
| KSSQSFLYESRNKNSVA | WASTRES | QQYYRLPLS | 0.70 | 3/3 | 1/9 |
| TVSQSVLYESRNKNSVA | WASTRES | QQYHRLPLD | 2.58 | 2/3 | 1/9 |
| KSSQSVLKMSRNKNSVA | WASTRES | QQYHRLPSS | 2.52 | 3/3 | 2/9 |
| KSSQSVLYESRNKNSQA | NASTRES | QQYHRPPLS | not detected | 0/3 | 1/9 |
| KWSQSVLYESRNKMSVA | WASTRES | QQYHRCPLS | 2.14 | 3/3 | 7/9 |
| KSSQSVLYHSRNKNSVA | WASTRES | QQYHRPPES | 4.70 | 3/3 | 6/9 |
| KSSQQCLYESRNKNSVA | WASTREY | QQYHRLPLS | 1.48 | 3/3 | 2/9 |
| KSSQSVLYESRNKNSVA | WASTRLS | QAYHRLVLS | not detected | 0/3 | 0/9 |
| ASSQSVLYESRNKNSVA | WASTRES | QQYHRLALS | not detected | 0/3 | 3/9 |
| KSSQEVLYESRNKNSVA | PASTRES | QQYQRLPLS | not detected | 0/3 | 1/9 |
| CSSQSVLYESYNCNSVA | WASTRES | QQYHRLPLS | 3.32 | 2/3 | 3/9 |
| KSSQSVLNEQRNKNSVA | WASTRES | QQYQRLPLS | 1.06 | 3/3 | 2/9 |
| KSSQSVLYMSRNKRSVA | WASTRAS | QQYHRLPLS | 2.33 | 3/3 | 2/9 |
| KSSQDVLYESRNKNSVA | WAVTRES | QQYHTLPLS | 1.44 | 3/3 | 0/9 |
| KSSQSVLYESRNKNSVA | WASTREG | QQQERLPLS | not detected | 0/3 | 0/9 |
| KSSQEVLYESRNKNSVA | WASTMES | QQYHRPPLS | not detected | 0/3 | 1/9 |
| KSSQEVLYESLNKNSVA | WASTRES | QQYHRLPLS | not detected | 0/3 | 3/9 |
| KSSQSVLYESFNKNSVD | WASTRES | QQYHRLPLV | not detected | 0/3 | 1/9 |
| WSSQSVLYESRNKNSVQ | WASTRES | QQYHRLKLS | not detected | 0/3 | 0/9 |
| KSSQSVLYESRNKNSVA | WLSTRES | QQYHLLDLS | 3.72 | 1/3 | 0/9 |
| KSSQSVLVESRNKNSCA | WASTRES | QQYHRLPLS | 2.82 | 2/3 | 2/9 |
| KSSQSVLYESRNKNSVA | WAATRES | QQYHLLPLS | 2.43 | 3/3 | 2/9 |
| KSSQSVLYEFRNKNSVA | WASTRES | QQHHRLPLS | not detected | 0/3 | 1/9 |
| KSSQPVLYESRNKNSVA | WASTRPS | QQYHRGPLS | 4.10 | 1/3 | 1/9 |
| KDSQSVLYYSRNKNSVA | WASTRES | QQMHRLPLS | 4.44 | 1/3 | 0/9 |
| TSSYSVLYESRNKNSVD | WASTRES | QQYHRLPLS | 5.38 | 1/3 | 0/9 |
| ASSQTVLYESRNKNSVA | WASTRTS | QQYHRLPLS | 2.27 | 3/3 | 2/9 |
| KSSQPVLYESRNKNSVA | CASTRES | QQAHRLPLS | 1.59 | 3/3 | 0/9 |
| ASSQSVLYESRNKNSVA | WASTRES | IQYHYLPLS | not detected | 0/3 | 0/9 |
| KSSQSVLYESRNKNSVA | AASTRES | QQYHRDPLD | not detected | 0/3 | 0/9 |
| KSSQSVLYESDNKHSVA | WASTRES | QEYHRLPLS | 2.01 | 3/3 | 5/9 |
| FSSQSVLYRSENKNSVA | WASTRES | QQYHRLPLS | 1.66 | 3/3 | 3/9 |
| KSSQCVLYESRNKNSLA | WASTRES | QQYHRLPLS | 3.04 | 3/3 | 5/9 |
| KSSQYVLYESRNKNSVA | WASTRES | QRYHRLPLV | not detected | 0/3 | 0/9 |
| KVSQSILYESRNKNSVA | WASTRES | QVYHRLPLS | 0.97 | 3/3 | 1/9 |
| KSSQSVLYESRNKNSVA | WASTRES | QQDHRLPLA | 0.96 | 3/3 | 0/9 |
| KSSQSVLYESRNKNVVA | WANTRES | WQYHRLPLS | not detected | 0/3 | 2/9 |
| KSSQSVLYESRNKNSVA | WASTRES | QMYHLLPLS | 4.01 | 1/3 | 3/9 |
| KSSQSVDYESRNKNSVA | WASTRES | QDIHRLPLS | not detected | 0/3 | 1/9 |
| KSSQSLLYESRNKNSVA | WNSTRES | QQNHRLPLS | 5.43 | 1/3 | 3/9 |
| KSSQMVLYESLLKNSVA | WASTRES | QQYHRLPLS | 1.83 | 3/3 | 0/9 |
| KSSQFVLYESRNKNSVI | WASTRES | GQYHRLPLS | not detected | 0/3 | 1/9 |
| KSGQSVLYESRNKNWVA | SASTRES | QQYHRLPLS | 2.09 | 3/3 | 1/9 |
| KMSQSVLYESRNSNSVA | WASTRES | QQYHRLPLS | 0.31 | 3/3 | 4/9 |
| KSSQSVLYESRNKNSVA | WASTRES | FQYHRLALS | not detected | 0/3 | 0/9 |

Top 8 of the variants detected in all replicates, tightest first:

| CDR-L1 | CDR-L2 | CDR-L3 | log10 Kd (nM), mean | seen in | control signals |
|---|---|---|---|---|---|
| KMSQSVLYESRNSNSVA | WASTRES | QQYHRLPLS | 0.31 | 3/3 | 4/9 |
| NSSQSVTYESSNKNSVA | WASTRES | QQYHRLPLS | 0.38 | 3/3 | 0/9 |
| KSSQSFLYESRNKNSVA | WASTRES | QQYYRLPLS | 0.70 | 3/3 | 1/9 |
| KASQSVLYESRDKNSVA | WASTRES | QQYHRLILS | 0.92 | 3/3 | 3/9 |
| KSSQSVLYESRNKNSVA | WASTRES | QQDHRLPLA | 0.96 | 3/3 | 0/9 |
| KVSQSILYESRNKNSVA | WASTRES | QVYHRLPLS | 0.97 | 3/3 | 1/9 |
| KSSQSVLNEQRNKNSVA | WASTRES | QQYQRLPLS | 1.06 | 3/3 | 2/9 |
| KSSQDVLYESRNKNSVA | WAVTRES | QQYHTLPLS | 1.44 | 3/3 | 0/9 |

Values reported by Engelhart et al. 2022, doi:10.1038/s41597-022-01779-4 (FLAb copy).